Measurements as given in publication PMC4420714 (Peptides, 2015).
“And” between values parts separate entries of the source, which are not always exact repeats. Equal values may be shown once. Read-outs that look alike come from different tables or passages of the source.

Amino acid sequences for entries named in this document (tags omitted). Residues count along the entry.
UniProt P32241, 31-457, species assumed: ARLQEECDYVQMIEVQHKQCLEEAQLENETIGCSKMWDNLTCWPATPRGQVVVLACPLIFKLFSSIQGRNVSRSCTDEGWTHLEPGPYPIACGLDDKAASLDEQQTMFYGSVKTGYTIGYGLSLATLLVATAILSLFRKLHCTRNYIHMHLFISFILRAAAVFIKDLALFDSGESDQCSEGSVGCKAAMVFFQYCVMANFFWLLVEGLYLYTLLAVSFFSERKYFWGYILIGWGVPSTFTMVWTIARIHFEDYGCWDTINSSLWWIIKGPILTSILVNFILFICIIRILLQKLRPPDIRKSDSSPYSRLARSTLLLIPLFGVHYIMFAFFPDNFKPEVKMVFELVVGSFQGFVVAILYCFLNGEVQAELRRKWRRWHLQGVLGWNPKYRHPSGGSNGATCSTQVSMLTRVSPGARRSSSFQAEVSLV

Assays:
[1] = biological target: T1, VPAC1-R (Homo sapiens, UniProt P32241); test: Binding of 125I-VIP to VPAC1-R/PANC-1 cells; details: for IC50: read-out: IC50 VPAC1-R, VPAC1-R/PANC-1; for decrease in affinity for VPAC1-R/PANC-1 cells compared to native PACAP38 (or PACAP27, VIP): ratio of binding IC50, analog vs native parent peptide
[2] = biological target: T1, VPAC1-R; test: Binding of 125I-VIP to T47D breast cancer cells containing native VPAC1-R; details: read-out: IC50 VPAC1-R, T47D
[3] = biological target: T2, VPAC2-R (Homo sapiens, UniProt P41587); test: Binding of 125I-PACAP27 to VPAC2-R/PANC-1 cells; details: read-out: IC50 VPAC2-R, VPAC2-R/PANC-1
T2 sequence (P41587 24-438): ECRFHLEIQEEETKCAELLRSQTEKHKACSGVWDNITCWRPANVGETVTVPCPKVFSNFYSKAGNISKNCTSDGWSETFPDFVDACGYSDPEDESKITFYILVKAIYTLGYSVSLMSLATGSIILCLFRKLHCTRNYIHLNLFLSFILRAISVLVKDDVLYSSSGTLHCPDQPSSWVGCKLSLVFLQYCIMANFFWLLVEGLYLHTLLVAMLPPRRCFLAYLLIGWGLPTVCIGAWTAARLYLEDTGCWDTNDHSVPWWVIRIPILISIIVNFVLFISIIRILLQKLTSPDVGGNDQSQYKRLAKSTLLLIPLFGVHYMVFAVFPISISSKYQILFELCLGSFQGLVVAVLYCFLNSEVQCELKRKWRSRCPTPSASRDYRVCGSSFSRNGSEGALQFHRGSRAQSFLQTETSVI

[4] = biological target: T2, VPAC2-R; type: binding; details: read-out: IC50 VPAC2-R, Sup-T1; Sup-T1 cells, 75 pM 125I-Ro 25-1553, 37°C
[5] = biological target: T1, VPAC1-R; test: [3H]cAMP generation in VPAC1-R/PANC-1 cells; type: cell-based; details: for EC50: read-out: [3H]cAMP VPAC1-R/PANC-1 EC50
[6] = biological target: T1, VPAC1-R; test: [3H]cAMP generation in T47D cells; type: cell-based; details: for EC50: read-out: [3H]cAMP T47D EC50
[7] = biological target: T2, VPAC2-R; test: [3H]cAMP generation in VPAC2-R/PANC-1 cells; type: cell-based; details: read-out: [3H]cAMP VPAC2-R/PANC-1 EC50; VPAC2-R/PANC-1 cells
[8] = ref [4],[4],[7],[31]; cited from earlier work
[9] = biological target: T3, PAC1-R (Homo sapiens, UniProt P41586); test: Binding of 125I-PACAP27 to PAC1-R stably transfected NIH 3T3 cells; details: for decrease in affinity for PAC1-R cells compared to native PACAP38 (or PACAP27): ratio of binding IC50, analog vs native parent peptide; for IC50: read-out: IC50 PAC1-R
T3 sequence (P41586 21-468): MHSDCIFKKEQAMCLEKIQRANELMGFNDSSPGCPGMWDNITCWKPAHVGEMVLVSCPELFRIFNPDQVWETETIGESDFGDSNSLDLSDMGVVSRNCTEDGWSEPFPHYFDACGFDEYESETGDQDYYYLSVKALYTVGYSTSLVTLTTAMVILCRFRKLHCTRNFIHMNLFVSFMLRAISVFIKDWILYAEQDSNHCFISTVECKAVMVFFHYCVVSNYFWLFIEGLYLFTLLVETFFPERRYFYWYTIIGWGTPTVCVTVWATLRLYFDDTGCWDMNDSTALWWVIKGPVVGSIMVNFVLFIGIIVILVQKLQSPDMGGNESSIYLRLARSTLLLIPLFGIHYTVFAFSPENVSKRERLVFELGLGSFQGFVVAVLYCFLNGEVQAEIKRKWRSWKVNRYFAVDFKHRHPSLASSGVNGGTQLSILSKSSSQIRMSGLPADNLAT

[10] = biological target: T3, PAC1-R; test: [3H]cAMP generation in PAC1-R cells; type: cell-based; details: for higher potency for PAC1-R cells compared to VPAC1-R/PANC-1 cells / higher potency for PAC1-R cells compared to VPAC2-R/PANC-1 cells: cAMP generation EC50 ratio; for EC50: read-out: [3H]cAMP PAC1-R EC50
[11] = biological target: T3, PAC1-R; test: [3H]Inositol phosphate generation; type: cell-based; details: PAC1-R cells; for less potent at stimulating [3H]IP (PLC) than cAMP: IP EC50/cAMP EC50; for efficacy for generation of cAMP and [3H]IP: compared with PACAP38; for EC50: read-out: [3H]IP EC50, 60 min 37°C, Fig. 9

Row | Substance | IC50 [1] | IC50 [2] | IC50 [4] | EC50 [5] | EC50 [6] | EC50 [7] | decrease in affinity for PAC1-R cells compared to native PACAP38 (or PACAP27) [9] | IC50 [9] | decrease in affinity for VPAC1-R/PANC-1 cells compared to native PACAP38 (or PACAP27, VIP) [1] | higher potency for PAC1-R cells compared to VPAC1-R/PANC-1 cells [10] | higher potency for PAC1-R cells compared to VPAC2-R/PANC-1 cells [10] | EC50 [10] | EC50 ([10]; PAC1-R cells) | EC50 ([5]; VPAC1-R/PANC-1 cells) | EC50 ([6]; T47D cells) | less potent at stimulating [3H]IP (PLC) than cAMP [11] | efficacy for generation of cAMP and [3H]IP [11] | EC50 [11] | also measured
1 | PACAP38 [reference compound] | 1.35 ± 0.04 nM | 1.29 ± 0.05 nM | 6.03 ± 0.3 nM | 0.54 ± 0.05 nM | 3.24 ± 0.19 nM | 1.38 ± 0.1 nM |  |  |  |  |  |  |  |  |  |  |  |  | IC50 [3]: 1 ± 0.11 nM; plasma half-life [8]: 5 to 10 min
2 | [D-Ser^2,Lys(Palmitoyl)^38]PACAP38 [Peptide P13] | 11.5 ± 0.9 nM | 3.9 ± 0.29 nM | 13.2 ± 0.5 nM | 4.07 ± 0.27 nM | 5.25 ± 0.25 nM | 3.47 ± 0.2 nM | 11–30 fold | 7.94 ± 0.48 nM | 2–10 fold | 16–50 fold and 15-to-666 fold | 22–55 fold | 0.15 ± 0.01 nM |  |  |  |  |  |  | [3H]cAMP T47D % max of partial agonist ([6]; T47D cells, partial agonist maximum): pAg (78) % max; [3H]cAMP T47D % max (agonist class) ([6]; T47D cells, relative to PACAP38, up to 1 µM): pAg (78)
3 | [D-Ser^2]PACAP38 [Peptide P16] | 417 ± 19 nM | 170 ± 8 nM | 63.1 ± 1.6 nM | 11 ± 1 nM | 19.9 ± 1.8 nM | 33.1 ± 1.9 nM |  | 7.94 ± 0.5 nM |  |  |  | 2.57 ± 0.07 nM |  |  |  |  |  |  | IC50 [3]: 14.8 ± 0.9 nM
4 | [Iaa^1,Ala^22]PACAP38 [Peptide P45] |  |  | > 1000 nM |  |  | 550 ± 17 nM | 5–10 fold |  | 11–40 fold | 2-to-5 fold | > 800 fold |  | 0.6 ± 0.05 nM | 2.63 ± 0.46 nM | 118 ± 10 nM | 106 fold | fully efficacious | 140 nM | higher affinity (selectivity) for PAC1-R cells over VPAC2-R/PANC-1 cells ([9]; IC50 VPAC2-R/PANC-1 divided by IC50 PAC1-R, binding): > 400 fold; [3H]cAMP VPAC1-R/PANC-1 % max (agonist class) ([5]; VPAC1-R/PANC-1 cells, relative to PACAP38, up to 1 µM): Ag (1 µM, 74)
5 | [Iaa^1,D-Ser^2]PACAP38 [Peptide P43] |  |  | 25.7 ± 1.4 nM |  |  | 20.1 ± 1.1 nM | 5–10 fold |  | 11–40 fold | 2-to-5 fold | 12–140 fold |  | 0.5 ± 0.01 nM | 2.63 ± 1.8 nM | 56.2 ± 3.9 nM | 377 fold | fully efficacious | 256 nM | 
6 | [Iaa^1]PACAP38 [Peptide P42] |  |  | 3.16 ± 0.21 nM |  |  | 5.13 ± 0.42 nM |  |  | 2–10 fold | 6–15 fold | 7-to-15 fold |  | 0.4 ± 0.01 nM | 2.63 ± 0.37 nM | 5.75 ± 0.73 nM | 25 fold | fully efficacious | 19.3 nM | greater affinity than potency for stimulating cAMP generation, VPAC1-R/PANC-1 cells ([5]; EC50 cAMP over binding IC50): 1.2–65.2 fold
7 | [Lys(palmitoyl)^38]PACAP38 [Peptide P12] | 8.13 ± 0.46 nM | 4.4 ± 0.2 nM | 5.89 ± 0.4 nM | 5.01 ± 0.35 nM | 5.45 ± 0.42 nM | 5.37 ± 0.25 nM | 11–30 fold | 6.31 ± 0.26 nM | 2–10 fold | 16–50 fold | 22–55 fold | 0.21 ± 0.02 nM |  |  |  |  |  |  | 
